{"sequences": {"note": "The chains behind the UniProt entries cited, without tags or fusion partners.", "UniProt Q14974, whole entry, looked up": "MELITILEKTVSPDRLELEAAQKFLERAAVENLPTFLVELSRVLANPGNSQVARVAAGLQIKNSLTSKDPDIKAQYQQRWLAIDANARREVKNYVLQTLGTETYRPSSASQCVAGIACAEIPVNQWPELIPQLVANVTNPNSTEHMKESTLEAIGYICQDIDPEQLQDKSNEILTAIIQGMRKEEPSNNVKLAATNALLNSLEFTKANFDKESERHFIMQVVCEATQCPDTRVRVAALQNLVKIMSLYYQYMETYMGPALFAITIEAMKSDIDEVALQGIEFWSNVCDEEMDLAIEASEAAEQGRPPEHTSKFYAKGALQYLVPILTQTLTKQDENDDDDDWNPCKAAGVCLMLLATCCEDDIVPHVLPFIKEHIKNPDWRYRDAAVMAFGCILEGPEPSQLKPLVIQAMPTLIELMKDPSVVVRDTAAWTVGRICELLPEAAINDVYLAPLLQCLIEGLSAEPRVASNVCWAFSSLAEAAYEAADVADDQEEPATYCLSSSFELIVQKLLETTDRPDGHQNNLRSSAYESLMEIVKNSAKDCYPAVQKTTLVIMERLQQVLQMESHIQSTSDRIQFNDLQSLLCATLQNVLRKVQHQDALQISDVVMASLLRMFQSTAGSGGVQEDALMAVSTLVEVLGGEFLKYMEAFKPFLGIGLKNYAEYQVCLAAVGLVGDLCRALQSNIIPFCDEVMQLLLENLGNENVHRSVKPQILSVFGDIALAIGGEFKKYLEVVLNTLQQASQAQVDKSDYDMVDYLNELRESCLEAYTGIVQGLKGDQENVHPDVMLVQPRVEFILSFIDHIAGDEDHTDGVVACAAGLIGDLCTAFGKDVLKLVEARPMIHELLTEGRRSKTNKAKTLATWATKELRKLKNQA"}, "source": "PubChem BioAssay AID540263", "about": "(National Center for Advancing Translational Sciences (NCATS), 2011)", "note": "Out of some 340,000 compounds screened, about 100 (0.029%) were called active. About 8% were inconclusive and are not listed. This is one part of a sample in which actives are shown more often than they occur. A number with no mark means an inactive call. Calls follow the shape of the full dose curve. Potency is read from the fitted curve at half-maximal effect; tags tell the direction and shape of the fitted curve.", "data": [{"target": "Importin subunit beta-1 (Homo sapiens) (UniProt Q14974)", "assay": "qHTS Assay for Inhibitors of Rango (Ran-regulated importin-beta cargo) - Importin beta complex formation; also: nearly all actives have a fitted effect of over 15% in size;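 as to inhibition of complex formation: 0% = DMSO wells and 100% = buffer wells lacking importin beta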", "conditions": "Rango CFP/YFP FRET sensor + importin beta, 45 min; series mostly up to 92.2 µM; inhibition of complex formation: at the top concentration", "source_text": "NIH Molecular Libraries Probe Production Centers Network [MLPCN] NIH Chemical Genomics Center [NCGC] MLPCN Grant: R03 MH090808-01A1 Assay Submitter (PI): Petr Kalab NCGC Assay Overview: The small GTPase Ran regulates transport of macromolecules between the nucleus and the cytoplasm (nuclear transport) and has important functions in mitotic spindle assembly, nuclear envelope (NE) formation and nuclear pore complex (NPC) assembly. RanGTP gradient is thought to promote spindle assembly by providing a spatial clue to microtubule nucleation and Aurora A activation. Because the localized release and binding of importin alpha cargo relays this spatial clue to SAFs, inhibitors of the Rango - importin beta complex can then be used in further understanding their role in cell cycle specifically in mitosis progression. […] Activation of Aurora A has been linked to different types of cancer and a number of Aurora kinase inhibitors are being developed as potential canter therapeutics therefore, identified inhibitors of this complex could be developed into potential anti-mitotic probes for cancer treatment. Purified recombinant proteins Rango and importin beta were provided by the assay submitter. The assay used a fluorescence resonance energy transfer (FRET) Rango biosensor that contains the IBB of human snurportin 1 flanked by yellow fluorescent protein (EYFP) at the amino terminus and cerulean CFP10 at the carboxy terminus. […] Inhibitors will therefore be identified based on the ability to interfere with the FRET signal decrease. DMSO treated and no importin beta (buffer only) wells were used as negative and positive controls respectively. FRET readings were obtained at two time points. FRET reading prior to importin beta addition (pre-read) were used flag potential compound interference; FRET reading after importin beta addition (post-read) were used to identify inhibitors using the FRET ratio parameter.\nNCGC Assay Protocol Summary: Two and a half uL/well of Rango-buffer solution (50 nM Rango, 1x PBS, 1mM DTT, 0.02% Tween-20, 0.1% BSA final concentrations) was dispensed into 1536-well assay plates (Greiner, solid black medium-binding plates) with Aurora Discovery BioRAPTR Flying Reagent Dispenser (FRD; Beckton-Dickenson). Compound solution (23 nL) was transferred to the assay plate using Kalypsys pin tool equipped with a 1536-pin tool and incubated at room temperature for 5 min followed by a FRET pre-read using the PerkinElmer Envision plate reader. Two and a half uL/well of Importin beta - buffer solution (0.125 microM importin beta, 1x PBS, 1mM DTT, 0.02% Tween-20, 0.1% BSA final concentrations) were then added and incubated at room temperature giving a final reaction volume of 5uL. After 45min FRET post-read was obtained via the Envision plate reader using the same optics and settings as the pre-read (CFP/YFP optimized dual optical module D450/D505; excitation mirror CFP 430/24 nm; and emission filters CFP 486/10 nm and YFP 530/10 nm).", "units": {"inhibition of complex formation": "%"}, "values": [{"smiles": "CCN(CC)S(=O)(=O)c1cccc(NC(=O)c2ccc(S(=O)(=O)N3CCCC3)cc2)c1", "inhibition of complex formation": -0.567}, {"smiles": "O=C(NNc1nc(N2CCCC2)nc(N2CCCC2)n1)c1ccccc1", "inhibition of complex formation": -2.23}, {"smiles": "O=C(NCC1CCCCC1)NCC1CCCCC1", "inhibition of complex formation": 0.434}, {"smiles": "Cc1cc(OCCCC(=O)Nc2cc(S(=O)(=O)N3CCOCC3)ccc2N2CCOCC2)ccc1Cl", "inhibition of complex formation": -3.56}, {"smiles": "C(#CCN1CCOCC1)CCCN1CCOCC1", "inhibition of complex formation": -2.11}, {"smiles": "c1ccc(C(=NNc2nc3ccccc3s2)c2ccccn2)cc1", "inhibition of complex formation": 3.48}, {"smiles": "O=C1C(Cl)=C(Oc2ccccc2)C(=O)c2ccccc21", "inhibition of complex formation": -0.947}, {"smiles": "O=C(O)C1C2C=CC(O2)C1C(=O)Nc1ccccn1", "note": "(centres undefined)", "inhibition of complex formation": -0.337}, {"smiles": "O=C1CC[C@@H]2CC3(C[C@@H]4CCN1[C@H]24)Nc1cc([N+](=O)[O-])ccc1NC3=NC1CCCCC1", "note": "(some centres undefined)", "inhibition of complex formation": 7.93}, {"smiles": "COc1cccc2c1C(=O)c1c(O)c3c(c(O)c1C2=O)CC(O)(C(C)=NNC(=O)c1ccc(Cl)c(Cl)c1)CC3OC1CC(N)C(O)C(C)O1", "note": "(centres undefined)", "Potency": "14.6 µM (active)"}, {"smiles": "Cc1cccc(NC(=S)N2CCC(C(=O)c3ccc(F)cc3)CC2)c1", "inhibition of complex formation": 5.47}, {"smiles": "CCC1([N+](=O)[O-])COC(c2ccc(C)cc2)OC1", "note": "(centres undefined)", "inhibition of complex formation": 1.54}, {"smiles": "COC(=O)c1ccc(NCc2cc(O)ccc2O)cc1", "inhibition of complex formation": -7.51}, {"smiles": "CC(=O)c1ccc(NC(=O)C(C)OC(=O)c2ccc(NS(=O)(=O)c3ccc4[nH]c(=O)[nH]c4c3)cc2)cc1", "note": "(centres undefined)", "inhibition of complex formation": 0.601}, {"smiles": "CCOc1cc2ccccc2cc1C(=O)Nc1ccccn1", "inhibition of complex formation": 0.912}, {"smiles": "CCN(CC)CCOc1ccc2c(c1)C(=NNC(=O)c1ccccn1)c1cc(OCCN(CC)CC)ccc1-2", "Potency": "46.1 µM (active)"}, {"smiles": "Cc1cccc(OCC(=O)NCCCNC(=O)c2ccccn2)c1", "inhibition of complex formation": 3.28}, {"smiles": "COC(=O)c1ccc(CNC(=O)Cn2cc(C)c(=O)[nH]c2=O)cc1", "inhibition of complex formation": -2.1}, {"smiles": "CC(Nc1ccc([N+](=O)[O-])cc1[N+](=O)[O-])c1ccccc1", "note": "(centres undefined)", "inhibition of complex formation": -0.617}, {"smiles": "CCCN(C(=O)COC(=O)CNS(=O)(=O)c1ccc(NC(C)=O)cc1)C1CCS(=O)(=O)C1", "note": "(centres undefined)", "inhibition of complex formation": 0.164}, {"smiles": "CC(=NNC(=S)N1CCCCCC1)c1ccccn1", "inhibition of complex formation": -3.27}, {"smiles": "CCOc1ccc(CCNC(=O)COC(=O)C2CCN(S(=O)(=O)c3ccccc3)CC2)cc1OCC", "inhibition of complex formation": -2.12}, {"smiles": "CC(=NNC(=O)c1ccc2nc[nH]c2c1)c1ccc(Br)cc1", "Potency": "51.7 µM (active)"}, {"smiles": "O=C(N/N=C/c1ccc(Cl)c(Cl)c1)c1ccc2nc[nH]c2c1", "inhibition of complex formation": 2.08}, {"smiles": "COc1ccc(/C(C)=N/NC(=O)c2ccc3nc[nH]c3c2)cc1", "inhibition of complex formation": -1.28}, {"smiles": "COc1ccc(CCN2CC(C(=O)OCC(=O)NCc3ccccc3Cl)CC2=O)cc1OC", "note": "(centres undefined)", "inhibition of complex formation": 5.68}, {"smiles": "COc1cc2c(cc1OC)C1C(=O)c3cc(OS(C)(=O)=O)c(OC)cc3C1N(C)C2=O", "note": "(centres undefined)", "inhibition of complex formation": -0.982}, {"smiles": "O=C(Cc1ccc(NC(=O)C2CCCN(C(=O)C3CCCCC3)C2)cc1)Nc1cccc(C(=O)N2CCCCC2)c1", "note": "(centres undefined)", "inhibition of complex formation": -3.72}, {"smiles": "CCOC(=O)[C@H]1[C@H]2COc3ccc(Br)cc3[C@@H]2N2C(=O)CN(C)C(=O)[C@@]12C", "inhibition of complex formation": -0.78}, {"smiles": "O=C(NCCc1ccccc1)c1cccc(NC(=O)c2ccccc2)c1", "inhibition of complex formation": 0.414}, {"smiles": "CC(=O)CSc1nc(CCc2ccccc2)c(C#N)c(=O)[nH]1", "inhibition of complex formation": -0.166}, {"smiles": "COC1C(CO)OC(n2cnc3c(=S)nc(N)[nH]c32)C1O", "note": "(centres undefined)", "inhibition of complex formation": 5.99}, {"smiles": "COc1ccc(Cn2cc(CN3CCS(=O)(=O)N(Cc4ccc(-c5cccc(Cl)c5)cc4)C(C)C3=O)nn2)cc1", "note": "(centres undefined)", "inhibition of complex formation": 0.684}, {"smiles": "CCN1C[C@@H]2[C@@H]3C(=O)N(Cc4ccccc4)C(=O)[C@@H]3[C@](C)(C1=O)N2C(=O)c1ccc(C(C)(C)C)cc1", "inhibition of complex formation": -0.393}, {"smiles": "Cc1cc2c(cc1C)NC1(C[C@H]3CCC(=O)N4CC[C@@H](C1)[C@@H]34)C(=NC(C)(C)CC(C)(C)C)N2", "note": "(some centres undefined)", "inhibition of complex formation": -5.93}, {"smiles": "O=C(OCCOc1ccccc1F)c1cc(S(=O)(=O)N2CCOCC2)ccc1F", "inhibition of complex formation": -0.785}, {"smiles": "O=C1/C(=C\\c2ccc([N+](=O)[O-])cc2)CS(=O)(=O)C/C1=C/c1ccc([N+](=O)[O-])cc1", "inhibition of complex formation": -1.37}, {"smiles": "FC(F)(F)c1ccc(-c2cccc3c2C2CC3CCN2Cc2ccccc2)cc1", "note": "(centres undefined)", "inhibition of complex formation": -0.476}, {"smiles": "CCOc1ccc(S(=O)(=O)N2CCN(C(=O)c3oc4ccccc4c3C)CC2)cc1", "inhibition of complex formation": 0.762}, {"smiles": "Cc1nc(N)nc(Cl)c1CCC1OCCO1", "inhibition of complex formation": -0.198}, {"smiles": "Cn1c(=O)[nH]c2c(c(C(=O)O)nn2C)c1=O", "inhibition of complex formation": 2.54}, {"smiles": "O=C(CC(=O)c1cccnc1)c1ccccc1", "inhibition of complex formation": -1.07}, {"smiles": "O=C(O)C(c1cccs1)C1(O)CCCCC1", "note": "(centres undefined)", "inhibition of complex formation": 2.58}, {"smiles": "CC(=NNC(=O)c1ccncc1)c1ccc(Cl)c(Cl)c1", "inhibition of complex formation": 0.952}, {"smiles": "Cc1ccc2c(O)c(Cc3ccccc3)c(=O)[nH]c2n1", "inhibition of complex formation": -0.948}, {"smiles": "COc1ccc(OC)c(Cc2cnc3nc(N)nc(N)c3c2C)c1", "inhibition of complex formation": 1.02}, {"smiles": "O=C1NC(=O)C(CCc2ccccc2)(c2ccccc2)N1", "note": "(centres undefined)", "inhibition of complex formation": -0.134}, {"smiles": "O=S(=O)(Nc1ccc2ccccc2c1)N1CCCCC1", "inhibition of complex formation": 1.21}, {"smiles": "NC(=O)C1(Nc2ccc([N+](=O)[O-])cc2)CCCC1", "inhibition of complex formation": 1.99}]}]}
